The data set has as its system CD4+ T cell (CD8+ T cell depleted PBMCs). Description: Ex vivo T-cell proliferation assay. As to conditions: donors positive on at least one time point. It counts as cell-based, human.

For the substance Herceptin: low immunogenicity control, the “% Response” value came out at 8%.

For the origin of these results see patent publication US20260295054A1, “GLUCAGON-LIKE PEPTIDE-1 RECEPTOR AGONIST VARIANTS AND METHODS THEREOF” (Neuraly, Inc., priority 2023, published 2026).
